From PubChem BioAssay AID1347069 (National Center for Advancing Translational Sciences (NCATS), 2019) come the findings set out here.

Chains of the proteins cited; added tags and fusions are not shown.
UniProt Q99816, whole entry: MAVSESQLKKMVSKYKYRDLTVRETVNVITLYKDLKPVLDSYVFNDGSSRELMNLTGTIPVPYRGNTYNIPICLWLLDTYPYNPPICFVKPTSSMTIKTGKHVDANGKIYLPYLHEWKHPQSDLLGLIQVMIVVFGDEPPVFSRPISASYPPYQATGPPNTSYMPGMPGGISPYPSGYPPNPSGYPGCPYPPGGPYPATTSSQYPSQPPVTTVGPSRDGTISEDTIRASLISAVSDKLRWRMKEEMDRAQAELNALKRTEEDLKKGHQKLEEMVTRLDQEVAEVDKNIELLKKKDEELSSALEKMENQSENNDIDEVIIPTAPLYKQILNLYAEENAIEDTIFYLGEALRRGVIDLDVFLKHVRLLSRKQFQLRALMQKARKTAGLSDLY

The list shows a part of the results, in another mix than the full data. Some results for these compounds are left out of this collection, so the calls shown say nothing about other tests. Active and inactive are the calls of the source. Calls follow the shape of the dose curve; as a rule, active = well fitted inhibition curve with a large enough effect; inconclusive = small, poorly fitted or top-dose-only effect; inactive = flat fitted curve, though single readings scatter.

This assay concerns the target Tumor susceptibility gene 101 protein (Homo sapiens) (UniProt Q99816). Put plainly: qHTS Validation Assay for Inhibitors of HIV-1 Budding by Blocking the Interaction of PTAP/TSG101: Sytravon Library Screen. Also: 0% is about no effect. Particulars: Fluorescence polarization, FITC-PTAP peptide/Tsg101, 20 min; at 115 µM (top of the series). The text has this: Stages of the HIV-1 replication cycle, specifically virus assembly and release, provide underexploited targets for the development of novel antiviral inhibitors. The late stages of HIV-1 replication are mediated by the Gag precursor protein, Pr55Gag. Expression of Pr55Gag is both necessary and sufficient for the production of virus-like particles from Gag-expressing cells. The Gag protein hijacks key host proteins involved in endocytic machinery of the host cell to promote endosomal processing and viral budding. The budding process requires a direct interaction between a […] (PTAP) motif in the p6 domain of Gag and the cellular endosomal sorting protein known as Tsg101. In this way, the Gag PTAP motif promotes the host cells to recruit viral particles to the plasma membrane where the new viral particles are released, effectively turning the host cells into viral factories. A fluorescence polarization assay has been developed to quantitatively measure the PTAP-Tsg101 interaction which can be used to screen for inhibitors of this interaction. This assay was run against the NCGC Sytravon Library collection. NIH Molecular Libraries Probe Production Network [MLPCN] NIH Chemical Genomics Center [NCGC] Grant: R03 MH087464-01A1 PI Name: Dr. Eric Freed, NCI
Two uL of the Tsg101 binding domain in buffer (10 mM HEPES pH 7.5; 0.15 M NaCl, 0.01% Tween 20; 3 mM EDTA;0.1 mM TCEP) was dispensed into Greiner black MB 1536-well plates (final concentration 10 uM). Then, 23 nL of compounds or DMSO were delivered to each well using a pin tool. Finally, 2 uL of a FITC-labeled peptide containing the PTAP motif (1) in the same buffer was dispensed (50 nM final concentration) and the binding was allowed to proceed for 20 min. at r.t. Fluorescent polarization was determined using FITC excitation and polarized emission filters on a Perkin Elmer Envision. Assay cut-off (positive/negative criteria): Actives defined by CRC class, <25 µM; Efficacy <60% inhibition. The total fluorescent intensity from S and P channels will be used to flag fluorescent compounds.
In general terms: Quantitative high-throughput screening tests each substance at several concentrations.
Turning to `COc1ccc(C(=O)NCC2(N(C)C)CCCCC2)cc1Cl`, the activity change, negative = inhibition was inactive: 0.539%.
With `CC(C)COc1ccc(C(=O)NCC2(N(C)C)CCCCC2)cc1` the figure was inactive: 3.98%; with `COc1cccc(C(=O)NCC2(N3CCOCC3)CCCCC2)c1`, inactive: 0.0518%; with `CC(C)Oc1ccc(C(=O)NCC2(N(C)C)CCCCC2)cc1`, inactive: 0.48%.
With `Cc1cccc(C(=O)NCC2(N(C)C)CCCCC2)c1` the figure was inactive: -0.349%; with `COc1cc(C(=O)NCC2(N(C)C)CCCCC2)cc(OC)c1OC`, inactive: 1.04%; with `CN(C)C1(CNC(=O)c2ccccc2F)CCCCC1`, inactive: -0.161%.
The result for `CN(C)C1(CNC(=O)c2cccc(Cl)c2)CCCCC1` reads inactive: -1.5%; that for `CCCCOc1ccccc1C(=O)NCC1(N(C)C)CCCCC1`, inactive: -0.149%.
`CN(C)C1(CNC(=O)c2ccccc2[N+](=O)[O-])CCCCC1`: the activity change, negative = inhibition was inactive: 0.892%.
With `CCOc1cccc(C(=O)NCC2(N(C)C)CCCCC2)c1` the figure was inactive: 4.46%.
